Test results taken from PMC4777244, “Activation of transient receptor potential ankyrin 1 induces CGRP release from spinal cord synaptosomes” (Pharmacology Research & Perspectives, 2015).

Protein sequences, listed by entry. Tags and fused reporters are not part of them.
UniProt Q6RI86, whole entry: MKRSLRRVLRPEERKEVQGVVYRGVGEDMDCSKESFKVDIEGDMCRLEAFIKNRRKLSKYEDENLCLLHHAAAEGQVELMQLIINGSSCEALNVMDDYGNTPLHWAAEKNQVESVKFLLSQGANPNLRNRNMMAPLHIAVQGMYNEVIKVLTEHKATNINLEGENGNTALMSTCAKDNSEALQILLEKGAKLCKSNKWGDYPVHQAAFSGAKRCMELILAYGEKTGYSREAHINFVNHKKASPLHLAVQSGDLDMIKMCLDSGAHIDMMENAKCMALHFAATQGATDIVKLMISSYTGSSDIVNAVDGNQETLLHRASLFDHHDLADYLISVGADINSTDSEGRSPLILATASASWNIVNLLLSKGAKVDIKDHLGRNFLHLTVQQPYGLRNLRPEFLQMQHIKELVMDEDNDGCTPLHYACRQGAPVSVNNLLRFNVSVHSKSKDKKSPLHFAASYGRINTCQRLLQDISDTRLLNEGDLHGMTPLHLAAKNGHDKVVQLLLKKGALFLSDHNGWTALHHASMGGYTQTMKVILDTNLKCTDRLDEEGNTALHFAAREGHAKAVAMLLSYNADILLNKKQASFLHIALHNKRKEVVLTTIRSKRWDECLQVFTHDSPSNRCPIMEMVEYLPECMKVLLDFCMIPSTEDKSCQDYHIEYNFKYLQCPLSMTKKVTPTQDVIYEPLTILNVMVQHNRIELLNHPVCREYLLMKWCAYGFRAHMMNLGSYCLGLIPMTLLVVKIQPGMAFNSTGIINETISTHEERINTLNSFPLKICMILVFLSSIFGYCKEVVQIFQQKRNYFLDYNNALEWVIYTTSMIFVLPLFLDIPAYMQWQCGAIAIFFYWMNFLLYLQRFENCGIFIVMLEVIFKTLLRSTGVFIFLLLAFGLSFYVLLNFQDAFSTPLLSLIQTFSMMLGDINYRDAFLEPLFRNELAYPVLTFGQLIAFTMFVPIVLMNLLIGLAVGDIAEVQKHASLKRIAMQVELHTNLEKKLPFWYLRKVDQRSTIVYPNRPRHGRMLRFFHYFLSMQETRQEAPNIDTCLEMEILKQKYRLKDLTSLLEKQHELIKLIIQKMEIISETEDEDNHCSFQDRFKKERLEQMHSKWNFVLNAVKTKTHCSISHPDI

Columns and labels:
opioid receptors = conditions: 10 μmol/L morphine, NS
TRPA1 = target: T1, TRPA1 (Rattus norvegicus, UniProt Q6RI86); assay: cell-based; conditions: EC50 of CGRP release
T1 construct: TRPA1 natively expressed on the central terminals of dorsal root ganglion neurons; from tissue; host or cells: lumbar spinal cord homogenate (synaptosomes) of adult male Sprague Dawley rats

SMILES | CGRP release evoked by 40 mmol/L KCl in the presence of morphine (opioid receptors; 40 mmol/L KCl) [% over basal release] | CGRP release evoked by 60 mmol/L KCl in the presence of morphine (opioid receptors; 60 mmol/L KCl) [% over basal release] | EC50 (TRPA1) [µM]
CN1CC[C@]23c4c5ccc(O)c4O[C@H]2[C@@H](O)C=C[C@H]3[C@H]1C5 [morphine] | 62 ± 5 | 103 ± 6 | –
C=CCN=C=S [AITC, allyl‐isothiocyanate] | – | – | 17.1 ± 0.77
